In patent US7507407B2, “Immunoliposomes that optimize internationalization into target cells” (The Regents of the University of California, priority 1994, dated 2009):

System: SK-BR-3 cells
Assay: antiproliferative activity of empty immunoliposomes, monolayer culture, crystal violet
Type: cell-based
Settings: continuous treatment for 4 days

rhuMAbHER2-Fab′: Monovalent Fab′ fragment of humanized anti-HER2 antibody rhuMAbHER2, expressed in E. coli
effect on cell growth: only modest growth inhibition
